## Apparent affinities of Ab-14 variants for a coronavirus HR2 peptide

Reference: Li et al. 2023, doi:10.1038/s41467-023-39022-2. File: FLAb, binding data.

Target peptide (SARS-CoV-2 spike, HR2 region): PDVDLGDISGINAS

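The parent was found by panning a naive human phage display library on the peptide. The variants were designed computationally from a first round of random CDR variants and then made and measured. Group labels follow the data file (En: ensemble of fine-tuned language models; GP: Gaussian process model; HC: hill climbing; Gen: genetic algorithm; Gibbs: Gibbs sampling; a sequence that several methods proposed may carry one label only). In AlphaSeq, yeast of one mating type display the scFv and yeast of the other type display the target. Binding brings cells together so that they mate, and sequencing counts the barcode pairs among the diploids. Each replicate has its own calibration line, from reference interactions of the BCL2 family. Mating was done six times.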

The variants keep the heavy chain, the linker and the frameworks of Ab-14 (scFv order VH, three GGGGS repeats, VL).
VH: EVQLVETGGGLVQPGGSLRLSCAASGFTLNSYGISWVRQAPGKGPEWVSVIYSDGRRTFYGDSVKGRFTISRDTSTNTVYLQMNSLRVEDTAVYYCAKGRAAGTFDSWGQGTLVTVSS
VL: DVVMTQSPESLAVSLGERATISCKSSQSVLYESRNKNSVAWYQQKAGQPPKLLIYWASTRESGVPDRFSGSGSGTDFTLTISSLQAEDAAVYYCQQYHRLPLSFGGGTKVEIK

Variants are written as CDR1, CDR2 and CDR3 of the light chain (limits as in the source). Parent: KSSQSVLYESRNKNSVA, WASTRES, QQYHRLPLS.
Variants here have more than six changes.
Values are apparent Kd, the geometric mean of the replicates that gave a signal; lower means stronger binding.
"no signal" means that the variant was in the library but no mating with the target was seen in any replicate; the authors take this as a sign of poor binding, and no number exists.
The parent sequence was in this pool as ten entries: three were never detected, three once, and four in most replicates, with averages from 2.2 nM to 240 nM.

Variant WLSMSVMLESRNKNSVA / SASTREL / QQYHRLPLS [GP_Gibbs] showed 860 pM (6 of 6 replicates). Variant MISDLTMYGSRNTNSVA / DLSTRGS / QQYHRLPLS [En_HC] showed 1.7 nM (6 of 6 replicates). Variant TIQQMMSLFSQTINNVA / EVSTREN / QQYDRLPLA [En_Gen] showed 8.9 nM (6 of 6 replicates). Variant QLAVDRLMEYEMGDAIA / GKTLRVD / QQYARLPLS [En_Gibbs] showed 12 nM (6 of 6 replicates). For KLSMLYRYETEEKNSIA / ELVTRMS / QQYHRLPLS [En_HC], the assay gave no signal (0 of 6 replicates).

Variant KFSQMANAMSVSHSAVA / EMSTRED / QQYNRLPLS [En_Gen] gave 1.2 nM (6 of 6 replicates). For MIAESSGYQSRNKNSVA / DNSTRED / QCYDRLPLS [En_HC], the assay gave 540 nM (1 of 6 replicates). With MIYGMDRELGRAANSIA / DNVTRYD / QQYERLPLS [En_Gen] the result was 130 nM (5 of 6 replicates). For NVGQIMDGETRNRNNVA / HQSTRED / QHYHRLPLS [En_HC], the assay gave 960 pM (6 of 6 replicates). For SLSHDQGDETNHWENVA / QDHYRAN / QDYSRLPLS [En_Gibbs], the assay gave 78 nM (5 of 6 replicates).

With SLNKEAWDFNQTWNAVA / DHSMRVT / QDYIRLPLT [En_Gibbs] the result was no signal (0 of 6 replicates). With KMMQSQLYEDRMSNAVA / NASQRES / QQYHRLPLS [GP_Gibbs] the result was 1.7 nM (6 of 6 replicates). For KIMSHAERGNGIAGQIA / DAHERIT / QQYQHLPLS [En_Gibbs], the assay gave 3.0 nM (6 of 6 replicates). Variant KLSQAVNVTGKNKNSVA / ELSFREK / QQYDRLPLS [En_HC] gave 150 nM (4 of 6 replicates). For TLSNMSGLEAVKHNNVA / ENSTREK / QQYDRLPLT [En_Gen], the assay gave 110 nM (5 of 6 replicates).

Variant KLSQSELYEDRNINSVA / NASQRCS / QQYHRLPLS [GP_Gibbs] showed 2.1 nM (6 of 6 replicates). Variant HITYGMMVHGRHGSSIA / QAETRAK / QQYDRLPLA [En_Gen] showed 58 nM (5 of 6 replicates). Variant KVQFQVLYSSRNKNSVA / QANTRES / QQYHRLPLS [GP_Gibbs] showed 4.2 nM (6 of 6 replicates). With QLSMITGHVSMSKNNVA / EMETREE / QQYDRLPLS [En_Gen] the result was 24 nM (6 of 6 replicates). Variant QLDQAYRVGALWTDSIA / HASMRVQ / QCYNRLPLS [En_Gibbs] showed 1.2 µM (3 of 6 replicates).

Variant NLAMAYLQGILIKNNIA / SSNLREN / QQYEHLPLI [En_Gibbs] gave 8.5 nM (6 of 6 replicates). With KITATMRFEQKNSNNIA / EVTTRSK / QQYYRLPIS [En_Gen] the result was 2.6 nM (6 of 6 replicates). For KVDQSVLQQSRNINSVA / EASQREE / QQYHRLPLS [GP_Gibbs], the assay gave 1.6 nM (6 of 6 replicates). Variant MISQLYNMGQFAINSVA / QASERSN / QQYDRLPLM [En_Gen] gave 100 nM (6 of 6 replicates). Variant LTMKFNSQMGNAQNSIA / AGTSRVQ / QCYYRLPLS [En_Gibbs] showed 9.0 nM (6 of 6 replicates).

Variant KSSGSVMGEDMNKNSVA / HASQRES / QQYHRLPLS [GP_Gibbs] gave 2.4 nM (6 of 6 replicates). Variant MIQYGQERDSEHYNSIA / NDHEVSI / QQYYRLPLV [En_Gibbs] gave 54 nM (6 of 6 replicates). With RIQDHMAVGEMSHSSIA / EEATVMD / QQYSRLPLA [En_Gibbs] the result was 2.7 nM (6 of 6 replicates). Variant TIGQSTLMESRNKNNVA / QMSTREK / QQYDRLPLS [En_HC] showed no signal (0 of 6 replicates). Variant HMSMLTLGGLKERNSVA / QMTTREN / QQYDHLPLS [En_Gen] showed 4.1 nM (6 of 6 replicates).

Variant NLSYRQGEPTGMVNSVA / QTSLRAH / QQYAHLPLC [En_Gibbs] gave 4.1 nM (6 of 6 replicates). Variant KLRMSTAYLMENKNSVA / ELTTRGN / QQYFRLPLS [En_HC] gave 7.0 nM (6 of 6 replicates). Variant KLDYLNHYSDIGGNSIA / DVSTAGM / QQYIRLPLS [En_Gibbs] gave 2.2 nM (6 of 6 replicates). Variant MISQLYNMGQFAINSVA / QASIRNQ / QQYDRLPLA [En_Gen] gave 3.3 nM (6 of 6 replicates). For KLSMVTGHMSKAKNNVA / EMVTREE / QQYERLPLS [En_Gen], the assay gave 3.9 nM (6 of 6 replicates).

With KIQHQHVGNWKTANNIA / QGDQRCQ / QSYDRLPLS [En_Gibbs] the result was 38 nM (6 of 6 replicates). With NVGQYMDGESRNKNSVA / HQSTRED / QHYHRLPLS [En_HC] the result was 32 nM (5 of 6 replicates). For HMQIDIEMEEKHQNHVA / EASHLEY / QQYSELPLT [En_Gibbs], the assay gave 12 nM (6 of 6 replicates). Variant TISQVMNTLTREGNNVA / DLAERES / QQYFRLPLS [En_Gen] showed 4.6 nM (6 of 6 replicates). For MMGLCQNGYYQQNNSIA / DVNERAM / QQYGRLPLS [En_Gibbs], the assay gave 35 nM (6 of 6 replicates).

Variant TLDNHQAGYYQKNNNIA / EMNMRRY / QQYGRLPLS [En_Gibbs] gave 13 nM (6 of 6 replicates). For HINEVDPGVKNHYNNIA / DISEAAI / QQYFQLPLS [En_Gibbs], the assay gave 6.2 nM (6 of 6 replicates). Variant KIDQWKLGESVNKNSVA / DASTRMD / QQYHRLPLS [GP_Gibbs] gave 400 pM (6 of 6 replicates). For ILYESVGTLARNKNSVA / DNSTRES / QQYDRLPLS [En_HC], the assay gave 57 nM (1 of 6 replicates). Variant MISQLINMGQFAINSVA / QAETRCN / QQYDRLPLE [En_Gen] showed 210 nM (2 of 6 replicates).

Variant KVSDMMAFLQRNRNSVA / DNSTRGS / QQYHRLPLS [En_HC] showed 19 nM (6 of 6 replicates). With QLGKQAQGLMVSNQSVA / NEEMRAK / QQYFRLPFI [En_Gibbs] the result was 8.1 nM (6 of 6 replicates). Variant HMSAVTMMGMRQRNSVA / QMTMREN / QQYDRLPLM [En_Gen] gave 4.3 nM (6 of 6 replicates). Variant NMRGGEGEIAQHGYSVA / GVDLRAA / QQYARLPLH [En_Gibbs] showed 29 nM (6 of 6 replicates). Variant TLAQPQKELGYAKDAIA / DGSIRLG / QQYHRLPLV [En_Gibbs] gave 2.5 nM (6 of 6 replicates).

For NVKAMLNMWARDIHNVA / HADERAS / QQYSRLPLG [En_Gibbs], the assay gave 1.1 nM (6 of 6 replicates).

Excerpt, the first 8 entries:

For WLSMSVMLESRNKNSVA / SASTREL / QQYHRLPLS [GP_Gibbs], the assay gave 860 pM (6 of 6 replicates).
For MISDLTMYGSRNTNSVA / DLSTRGS / QQYHRLPLS [En_HC], the assay gave 1.7 nM (6 of 6 replicates).
For TIQQMMSLFSQTINNVA / EVSTREN / QQYDRLPLA [En_Gen], the assay gave 8.9 nM (6 of 6 replicates).
For QLAVDRLMEYEMGDAIA / GKTLRVD / QQYARLPLS [En_Gibbs], the assay gave 12 nM (6 of 6 replicates).
For KLSMLYRYETEEKNSIA / ELVTRMS / QQYHRLPLS [En_HC], the assay gave no signal (0 of 6 replicates).
For KFSQMANAMSVSHSAVA / EMSTRED / QQYNRLPLS [En_Gen], the assay gave 1.2 nM (6 of 6 replicates).
For MIAESSGYQSRNKNSVA / DNSTRED / QCYDRLPLS [En_HC], the assay gave 540 nM (1 of 6 replicates).
For MIYGMDRELGRAANSIA / DNVTRYD / QQYERLPLS [En_Gen], the assay gave 130 nM (5 of 6 replicates).

Values of this round are not directly comparable with the first-round values of the same sequences.
Background: pairings of all light chain designs with three empty control strains gave a value in 4% of cases (median 430 nM, 5th percentile 38 nM). Values in that range, when seen in few replicates, are hard to tell from nonspecific mating.
The authors' rule: three or more of the six replicates give a measured affinity, fewer mean a poor binder.